Common to all, as to format: cell-based
The test system of test [1] is P. acnes. How it is done:
(§1) Broth Dilution Antibacterial Susceptibility Testing
(§2) The sensitivity of relevant bacterial strains to the peptides (was determined using Clinical Laboratory Standard Institute (CLSI; formerly NCCLS) Approved Standards. Bacterial susceptibility was tested using “Methods for Dilution Antimicrobial Susceptibility Tests for Bacteria That Grow […]; Approved Standard—Seventh Edition M7-A7”

In test [2] the test system is S. aureus. How it is done:
as §1, §2

For test [3], the system named is Ps. aeruginosa. How it is done:
as §1, §2

`N=C(N)NCCC[C@H](NC(=O)[C@H](CCCNC(=N)N)NC(=O)[C@H](CCCNC(=N)N)NC(=O)[C@H](CCCNC(=N)N)NC(=O)[C@H](CCCNC(=N)N)NC(=O)[C@H](CCCNC(=N)N)NC(=O)[C@H](CCCNC(=N)N)NC(=O)[C@H](CCCNC(=N)N)NC(=O)[C@H](CCCNC(=N)N)NC(=O)[C@H](CCCNC(=N)N)NC(=O)[C@H](CCCNC(=N)N)NC(=O)[C@H](CCCNC(=N)N)NC(=O)[C@H](CCCNC(=N)N)NC(=O)[C@H](CCCNC(=N)N)NC(=O)[C@@H](N)CCCNC(=N)N)C(=O)O` [NP319, RRRRRRRRRRRRRRR (SEQ ID NO: 15)]: the “Minimum Inhibitory Concentration, antimicrobial activity, P. acnes” value in test [1] was <0.0156 mM. In test [2], the “Minimum Inhibitory Concentration, antimicrobial activity, S. aureus” value was 0.125 mM.

In the case of `N=C(N)NCCC[C@H](NC(=O)[C@H](CCCNC(=N)N)NC(=O)[C@H](CCCNC(=N)N)NC(=O)[C@H](CCCNC(=N)N)NC(=O)[C@H](CCCNC(=N)N)NC(=O)[C@H](CCCNC(=N)N)NC(=O)[C@H](CCCNC(=N)N)NC(=O)[C@H](CCCNC(=N)N)NC(=O)[C@H](CCCNC(=N)N)NC(=O)[C@H](CCCNC(=N)N)NC(=O)[C@H](CCCNC(=N)N)NC(=O)[C@H](CCCNC(=N)N)NC(=O)[C@H](CCCNC(=N)N)NC(=O)[C@H](CCCNC(=N)N)NC(=O)[C@@H](N)CCCNC(=N)N)C(=O)O` [NP352, RRRRRRRRRRRRRRR (SEQ ID NO: 15)], the “Minimum Inhibitory Concentration, antimicrobial activity, Ps. aeruginosa” value in test [3] came to 0.0625 mM.
